Here are results for one compound from US11344539B2, “Therapeutic or prophylactic drug for dementia” (dated 2022).

The subject of experiment [1] is Alzheimer's disease double transgenic mouse model, Tg (APPSWE) 2576KhaTg (Prnp-MAPT*P301L) JNPL3HImc. The experiment is described as follows: Number of senile plaques by size (HE, Aβ40 and Aβ42 staining) in the Alzheimer's disease double transgenic mouse model.
Experiment [2] shares this test system. The experiment is described as follows: Number of nerve cells with AT8 immunostaining-positive neurofibrillary tangles in the Alzheimer's disease double transgenic mouse model.

Turning to `Cc1nc(-c2ccc(OCC(C)C)c(C#N)c2)sc1C(=O)O`, in experiment [1] (diameter 50 μm or less, 5 mg/kg orally once a day from one year old, sampled at 690-700 days, mean±standard error, n=5), the “number of the small senile plaques” value is 148.5±13.2. The “number of the medium senile plaques” value in experiment [1] (diameter 50 μm to 100 μm, 5 mg/kg orally once a day from one year old, sampled at 690-700 days, mean±standard error, n=5) stood at 31.2±3.9. For the same compound, in experiment [1] (diameter 100 μm or more, 5 mg/kg orally once a day from one year old, sampled at 690-700 days, mean±standard error, n=5), the “number of large senile plaques in the cerebrum 1 coronal section” value was 7.9±1.3. The “number of medium senile plaques compared to the control group” value in experiment [1] (p=0.006, Mann-Whitney U test, 5 mg/kg orally once a day) is on record as “significant decrease”. Besides, the “number of large senile plaques compared to the control group” value in experiment [1] (p=0.033, Mann-Whitney U test, 5 mg/kg orally once a day) was “significant decrease”. In experiment [1] (p=0.055, Mann-Whitney U test, 5 mg/kg orally once a day), the “number of small senile plaques compared to the control group” value is given as “no significant difference”. Further, the “nerve cells with AT8 immunostaining-positive neurofibrillary tangles in the cerebrum 1 coronal section” value in experiment [2] (coronal section including hypothalamus and amygdaloid nucleus, 5 mg/kg orally once a day from one year old, sampled at 690-700 days, mean±standard error, n=5) is 70.2±32.8. Moreover, the “number of nerve cells with AT8 immunostaining-positive neurofibrillary tangles compared to the control group” value in experiment [2] (p=0.014, Kruskal-Wallis test, 5 mg/kg orally once a day) was “decreased significantly”.
